# Earlier results, collected in patent US4668705A, “Sebosuppressive preparations containing alkoxyaryl alkanols” (Henkel Kommanditgesellschaft auf Aktien, priority 1983, dated 1987).
# Tested on: seborrhea of the scalp
# Settings: after prolonged use; prior art; cited from earlier work
substance,measurement,value
mercury,side effects of known additives,frequently produce side effects after prolonged use
